Target: bovine cerebral TPK1 (Bos taurus, UniProt A0A3Q1MT31)
Assay: Inhibitory activity against P-GS1 phosphorylation by bovine cerebral TPK1
Details: 41.7 μM [γ-32P]ATP, 25° C., 2 hours, pH 6.5
Method: Inhibitory Activity of the Medicament of the Present Invention Against P-GS1 Phosphorylation by Bovine Cerebral TPK1
A mixture containing 100 mM MES-sodium hydroxide (pH 6.5), 1 mM magnesium acetate, 0.5 mM EGTA, 5 mM β-mercaptoethanol, 0.02% Tween 20, 10% glycerol, 12 μg/ml P-GS1, 41.7 μM [y-^32P] ATP (68 kBq/ml), bovine cerebral TPK1 and a compound shown in Table (a final mixture contained 1.7% DMSO deriving from a solution of a test compound prepared in the presence of 10% DMSO) was used as a reaction system. The phosphorylation was started by adding ATP, and the reaction was conducted at 25° C. for 2 hours, and then stopped by adding 21% perchloric acid on ice cooling. The reaction mixture was centrifuged at 12,000 rpm for 5 minutes and adsorbed on P81 paper (Whatmann), and then the paper was washed four times with 75 mM phosphoric acid, three times with water and once with acetone. The paper was dried, and the residual radioactivity was measured using a liquid scintillation counter. […] PHF formation, and that the medicaments of the present invention are effective for preventive and/or therapeutic treatment of Alzheimer disease and the above-mentioned diseases.

Amino acid sequences for entries named in this document (tags omitted). Residues count along the entry.
UniProt A0A3Q1MT31, 1-419: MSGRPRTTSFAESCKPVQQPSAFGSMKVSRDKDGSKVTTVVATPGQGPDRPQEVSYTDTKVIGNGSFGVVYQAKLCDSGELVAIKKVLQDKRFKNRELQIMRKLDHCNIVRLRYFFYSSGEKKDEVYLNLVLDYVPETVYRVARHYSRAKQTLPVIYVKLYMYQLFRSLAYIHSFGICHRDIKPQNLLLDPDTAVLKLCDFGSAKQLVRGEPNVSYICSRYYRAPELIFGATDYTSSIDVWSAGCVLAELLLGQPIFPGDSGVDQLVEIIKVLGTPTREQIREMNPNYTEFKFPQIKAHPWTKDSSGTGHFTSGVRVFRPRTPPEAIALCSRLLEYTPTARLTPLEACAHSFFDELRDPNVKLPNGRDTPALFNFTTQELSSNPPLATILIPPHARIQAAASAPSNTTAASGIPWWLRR

IC50: 0.6 nM
SMILES: Cn1c(N2CCOC(c3ccc(F)c(Br)c3)C2)nc(-c2ccncn2)cc1=O (stereo not shown)
